Patent publication US9480684B2, “Orvinol and thevinol derivatives useful in the treatment of anxiety or a compulsive disorder” (dated 2016)

Sequences of proteins named here, by UniProt entry; tags and fusion partners are left off.
UniProt P33535, whole entry: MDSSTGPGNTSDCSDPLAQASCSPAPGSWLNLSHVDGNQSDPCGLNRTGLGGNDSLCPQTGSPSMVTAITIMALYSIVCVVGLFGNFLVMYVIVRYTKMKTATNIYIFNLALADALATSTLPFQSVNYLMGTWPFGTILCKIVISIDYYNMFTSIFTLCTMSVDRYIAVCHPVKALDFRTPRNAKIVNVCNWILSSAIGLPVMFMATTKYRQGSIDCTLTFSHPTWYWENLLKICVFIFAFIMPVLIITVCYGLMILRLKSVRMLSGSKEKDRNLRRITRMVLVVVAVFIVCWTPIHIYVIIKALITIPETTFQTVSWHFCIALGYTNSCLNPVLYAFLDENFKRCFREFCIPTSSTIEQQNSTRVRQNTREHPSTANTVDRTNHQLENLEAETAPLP
UniProt P41145, whole entry: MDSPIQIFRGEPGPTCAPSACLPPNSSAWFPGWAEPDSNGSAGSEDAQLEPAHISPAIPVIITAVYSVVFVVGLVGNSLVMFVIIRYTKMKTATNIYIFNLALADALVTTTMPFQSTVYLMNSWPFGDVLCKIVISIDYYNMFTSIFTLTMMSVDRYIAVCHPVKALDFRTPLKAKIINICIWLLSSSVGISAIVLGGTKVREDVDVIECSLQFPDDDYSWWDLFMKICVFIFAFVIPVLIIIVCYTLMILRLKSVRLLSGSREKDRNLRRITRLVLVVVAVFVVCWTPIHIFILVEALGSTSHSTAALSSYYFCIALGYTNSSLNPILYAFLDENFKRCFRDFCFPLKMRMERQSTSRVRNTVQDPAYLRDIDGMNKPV
UniProt P33533, whole entry: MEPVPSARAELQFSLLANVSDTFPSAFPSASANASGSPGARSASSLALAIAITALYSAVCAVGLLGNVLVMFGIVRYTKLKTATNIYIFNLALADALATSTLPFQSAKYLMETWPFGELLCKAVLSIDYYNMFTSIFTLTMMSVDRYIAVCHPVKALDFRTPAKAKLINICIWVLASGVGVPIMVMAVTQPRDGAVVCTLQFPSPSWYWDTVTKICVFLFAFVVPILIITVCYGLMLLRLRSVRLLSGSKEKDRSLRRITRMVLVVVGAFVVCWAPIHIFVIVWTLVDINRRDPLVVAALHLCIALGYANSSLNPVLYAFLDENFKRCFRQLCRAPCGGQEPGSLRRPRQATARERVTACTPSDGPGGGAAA

Tests used:
[1] = target: T1, rat MOR (C6 glioma cell membranes) (Rattus norvegicus (Rat), UniProt P33535); test: Ligand binding assay, [3H]diprenorphine, mu opioid receptor; conditions: read-out: Binding affinity Ki, Mu, C6 glioma cells expressing rat receptor
Description: (§1) C6 glioma cells stably expressing the rat MOR (C6μ) or DOR (C6δ) were grown in Dulbecco's modified eagle medium (DMEM) supplemented with 10% fetal bovine serum (FBS), 90 units/ml penicillin, 90 μg/ml streptomycin, and 0.5 mg/ml geneticin. Chinese hamster ovary cells stably expressing the human KOR (CHOκ) or human NOP receptor CHO-NOP were maintained similarly, except that DMEM-F12 medium was used. All cells were grown under 5% CO2 at 37° C.
(§2) Cells were washed three times with PBS and detached from plates using harvesting buffer (20 mM HEPES, pH 7.4, 150 mM NaCl, and 0.68 mM EDTA). […] Protein concentration was determined using the BCA protein assay.
(§3) As Alt et al., 2002. […] Nonspecific binding is measured using 10 μM naloxone (MOR, DOR, KOR) or N/OFQ (NOP). […] Each filtermat in a heat-sealed bag, is counted in a Wallac 1450 MicroBeta Liquid Scintillation and Luminescence Counter. IC50 values for test compounds are determined from concentration effect curves and converted to Ki values using GraphPad Prism.
(§4) Binding affinities at MOPr, KO/Pr, DOPr and NOPr were measured using [^3H]diprenorphine (MOP, KOP, DOP) and [^3H]N/OFQ (NOP) binding to membranes derived from CHO cells transfected with human receptors (KOP and NOP receptors) and C6 glioma cells stably expressing rat receptors (MOP and DOP). […]

[2] = target: T2, human KOR (CHO cell membranes) (Homo sapiens (Human), UniProt P41145); test: Ligand binding assay, [3H]diprenorphine, kappa opioid receptor; conditions: read-out: Binding affinity Ki, Kappa, CHO cells transfected with human receptor
Description: as §1, §2, §3, §4

[3] = target: rat DOR (C6 glioma cell membranes) (Rattus norvegicus (Rat), UniProt P33533); test: Ligand binding assay, [3H]diprenorphine, delta opioid receptor; conditions: read-out: Binding affinity Ki, Delta, C6 glioma cells expressing rat receptor
Description: as §1, §2, §3, §4

[4] = target: T1, rat MOR (C6 glioma cell membranes); test: [35S]GTPγS binding assay, mu receptor; conditions: single concentration (10 μM) versus the standard DAMGO
Description: as §1
(§5) Cells were washed three times with PBS and detached from plates using harvesting buffer (20 mM HEPES, pH 7.4, 150 mM NaCl, and 0.68 mM EDTA). After centrifugation at 200×g for 3 min, the cell pellet was resuspended in 50 mM Tris-HCl, pH 7.4 and homogenized with a Tissue Tearor (Biospec Products, Inc). The homogenate was pelleted at 20,000×g for 20 min at 4° C. and the pellet resuspended in 50 mM Tris-HCl, pH 7.4 and re-homogenized. The final pellet was resuspended in 50 mM Tris-HCl, pH 7.4 and frozen in aliquots at −80° C. Protein concentration was determined using the BCA protein assay.
(§6) As described previously (Traynor and Nahorski, 1995), membranes (20 μg) from cells expressing MOR, DOR, KOR or NOP receptors are incubated in 20 mM Tris-HCl, pH 7.4, 5 mM MgCl2, 100 mM NaCl, 2.2 mM dithiothreitol (prepared freshly), 30 μM GDP, 0.1 nM [^35S]GTPγS, with or without 10 μM of test compound or 10 μM standard (DAMGO, SNC80, U50488H or N/OFQ as appropriate) or H2O for 60 min at 25° C. Samples are filtered through GF/C glass-fiber filtermats mounted on a Brandel cell harvester and rinsed four times with ice-cold 50 mM Tris-HCl, pH 7.4 containing 5 mM MgCl2, and 100 mM NaCl. Filtermats are processed as described for ligand binding above.
(§7) In a measure of functional activity, selected compounds have been evaluated in the [^35S]GTPγS assay in the same cell lines used for the binding assays (Table 2). Assays were performed as previously described by Traynor and Nahorski.^21 Agonist efficacy at MOR. KOR and NOP receptors was determined at a single concentration (10 μM) in comparison to the standard selective agonists DAMGO (MOR), and U69593 (KOR) and nociceptin (NOP) and antagonist Ke values determined against these standard agonists. For example, both 22, R=Ph (Ke(MOR) 0.47 nM, Ke(KOR) 0.41 nM) and 7a, R=Ph (Ke(MOR) 0.47 nM, Ke(KOR) 0.27 nM) are antagonists at MOR and KOR and have partial agonist activity at NOP receptors (40% and 14% of nociceptin's efficacy). 30. R=Ph also has no efficacy at MOR and KOR and is a partial agonist (57% of nociceptin) at NOP receptors.

[5] = target: T2, human KOR (CHO cell membranes); test: [35S]GTPγS binding assay, kappa receptor; conditions: single concentration (10 μM) versus the standard U69,593
Description: as §1, §5, §6, §7

[6] = Warm water tail withdrawal assay; conditions: 50° C., in vivo
Description: For all of the tail-withdrawal data a minimum of five mice is used in each group. Each mouse (is placed in a cylindrical restraint (Harvard Apparatus, South Natick, Mass., USA) with the tail fully exposed. Approximately one-third of the tail is immersed in water at 48° C. and latency to tail-withdrawal is measured (Janssen et al, 1963). The low temperature is to ensure that compounds with at delta or kappa agonism can be identified. Standards, test compounds or vehicle (usually sterile water) are be administered i.p. and tail-withdrawal latencies measured 25 min later. For antagonist studies compounds are administered 30 min before the first agonist dose. Baseline latencies vehicle injected mice) are typically 2-4 s. A cut-off latency of 20 s is used to prevent injury to the tail.

[7] = Anti-writhing assay (abdominal stretch assay); conditions: in vivo

## CO[C@]12C=C[C@@]3(C[C@]1(C)[C@@H](O)c1ccccc1)[C@H]1Cc4ccc(O)c5c4[C@@]3(CCN1CC1CC1)[C@H]2O5
[1]
  Ki: 0.6 nM
[2]
  Ki: 3.02 nM
[3]
  Ki: 1.08 nM

## CO[C@]12CC[C@@]3(C[C@]1(C)[C@H](O)c1ccc(F)cc1)[C@H]1Cc4ccc(O)c5c4[C@@]3(CCN1CC1CC1)[C@H]2O5
[4]
  Mu % stim: 17%

## CO[C@]12CC[C@@]3(C[C@]1(C)[C@H](O)c1ccccc1)[C@H]1Cc4ccc(O)c5c4[C@@]3(CCN1CC1CC1)[C@H]2O5
[4]; listed as 30, R = Ph
  Mu % stim: 2%
[4]; listed as 30. R=Ph
  Mu % stim: no efficacy
[5]; listed as 30, R = Ph
  Kappa % stim: 0%
[5]; listed as 30. R=Ph
  Kappa % stim: no efficacy
[6]
  Opioid agonist activity in the tail withdrawal assay: no agonist activity
[7]
  Opioid agonist activity in the anti-writhing assay: no agonist activity

## CO[C@]12CC[C@@]3(C[C@]1(C)[C@H](O)c1cccc(C)c1)[C@H]1Cc4ccc(O)c5c4[C@@]3(CCN1CC1CC1)[C@H]2O5
[4]
  Mu % stim: 9%

## CO[C@]12CC[C@@]3(C[C@@H]1[C@@](C)(O)c1ccncc1)[C@H]1Cc4ccc(O)c5c4[C@@]3(CCN1CC1CC1)[C@H]2O5
[4]
  Mu % stim: 1%
[5]
  Kappa % stim: −17%

## CO[C@]12CC[C@@]3(C[C@@H]1[C@](C)(O)c1ccccc1)[C@H]1Cc4ccc(O)c5c4[C@@]3(CCN1CC1CC1)[C@H]2O5
[6]
  Opioid agonist activity in the tail withdrawal assay: no agonist activity
[7]
  Opioid agonist activity in the anti-writhing assay: no agonist activity

## CO[C@]12C=C[C@@]3(C[C@]1(C)[C@H](O)c1cccc(C)c1)[C@H]1Cc4ccc(O)c5c4[C@@]3(CCN1CC1CC1)[C@H]2O5
[4]
  Mu % stim: 22%
[5]
  Kappa % stim: 6%

## CO[C@]12C=C[C@@]3(C[C@]1(C)[C@H](O)c1ccccc1)[C@H]1Cc4ccc(O)c5c4[C@@]3(CCN1CC1CC1)[C@H]2O5
[4]
  Mu % stim: 4%
[6]
  Opioid agonist activity in the tail withdrawal assay: no agonist activity
[7]
  Opioid agonist activity in the anti-writhing assay: no agonist activity
